Source: US10555896B2, “Skin penetration enhancing method and its penetration enhancer” (XIAMEN UNIVERSITY, priority 2016, dated 2020)

Tested on: porcine skin

For FITC-Dextran, the “FITC-Dextran in the dermis” value was “almost zero”.
